Details: rat, in vivo

CN(CCOc1ccc(CC2SC(=O)NC2=O)cc1)c1ccccn1 (stereo not shown) [Rosiglitazone]
AST/ALT: no significant effects
